# Source: EP4717267A1, “SYNERGISTIC COMBINATION FOR TREATING CANCER” (FUNDACION UNIVERSITARIA SAN ANTONIO (UCAM), priority 2023, dated 2024)
# Key:
# MCF-7 cells = experiment: MTT colorimetric cytotoxicity assay on MCF-7 cells, single drugs and two-drug combinations, with combination index (CompuSyn); type: cell-based, Human
# Method: IC50 values were calculated using GraphPad Prism software.
# This equation defines "Synergism" (CI < 1), "Additive effect" (CI = 1) and "Antagonism" (CI > 1).
# A549 cells = experiment: MTT colorimetric cytotoxicity assay on A549 cells, single drugs and two-drug combinations, with combination index (CompuSyn); type: cell-based, Human; settings: 0.58 µM Doxorubicin alone
structure (smiles),measurement,setting,value
"COc1cccc2c1C(=O)c1c(O)c3c(c(O)c1C2=O)C[C@@](O)(C(=O)CO)C[C@@H]3O[C@H]1C[C@H](N)[C@H](O)[C@H](C)O1 [Doxorubicin, (7S,9S)-7-[(2R,4S,5S,6S)-4-amino-5-hydroxy-6 methyloxan-2-yl]oxy-6,9,11-trihydroxy-9-(2-hydroxyacetyl)-4-methoxy-8,10-dihydro-7H tetracene-5,12-dione]",reduction in cancer cell survival,"MCF-7 cells; 0.225 µM Doxorubicin alone, MCF-7",23.1%
same,MCF-7 cell survival,MCF-7 cells; Doxorubicin alone at the highest dose tested (5.0 µM),31.9%
same,cancer cell survival,A549 cells,27.0%
